Earlier results in patent publication US20260031189A1, “METHOD AND SYSTEMS FOR PREDICTION OF HLA CLASS II-SPECIFIC EPITOPES AND CHARACTERIZATION OF CD4+ T CELLS” (BioNTech US Inc., priority 2022, published 2026).

Conditions: more than 25 clinical trials; cited from earlier work

## poly-ICLC
  toxicity profile: relatively benign toxicity profile
